From ChEMBL document CHEMBL3616394 (Eur J Med Chem, 2015)

By UniProt entry, the sequences of proteins in these tests, tags left out.
UniProt P58154, whole entry: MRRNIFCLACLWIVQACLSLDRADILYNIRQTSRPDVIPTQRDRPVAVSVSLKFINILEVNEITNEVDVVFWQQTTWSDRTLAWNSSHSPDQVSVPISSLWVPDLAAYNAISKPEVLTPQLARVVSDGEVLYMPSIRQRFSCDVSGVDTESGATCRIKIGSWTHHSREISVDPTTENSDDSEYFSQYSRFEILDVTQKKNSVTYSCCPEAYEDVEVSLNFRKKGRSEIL

Biological target: Acetylcholine-binding protein (Lymnaea stagnalis, UniProt P58154)

Structure (SMILES): CN1CCC[C@H]1c1cccnc1 [NICOTINE]
- Kd: 320 nM
